# Test results published in BindingDB's records for doi:10.1124/mol.54.2.322 (Georgetown University, 1998).
# By UniProt entry, the sequences of proteins in these tests, tags left out.
# UniProt P04757, whole entry: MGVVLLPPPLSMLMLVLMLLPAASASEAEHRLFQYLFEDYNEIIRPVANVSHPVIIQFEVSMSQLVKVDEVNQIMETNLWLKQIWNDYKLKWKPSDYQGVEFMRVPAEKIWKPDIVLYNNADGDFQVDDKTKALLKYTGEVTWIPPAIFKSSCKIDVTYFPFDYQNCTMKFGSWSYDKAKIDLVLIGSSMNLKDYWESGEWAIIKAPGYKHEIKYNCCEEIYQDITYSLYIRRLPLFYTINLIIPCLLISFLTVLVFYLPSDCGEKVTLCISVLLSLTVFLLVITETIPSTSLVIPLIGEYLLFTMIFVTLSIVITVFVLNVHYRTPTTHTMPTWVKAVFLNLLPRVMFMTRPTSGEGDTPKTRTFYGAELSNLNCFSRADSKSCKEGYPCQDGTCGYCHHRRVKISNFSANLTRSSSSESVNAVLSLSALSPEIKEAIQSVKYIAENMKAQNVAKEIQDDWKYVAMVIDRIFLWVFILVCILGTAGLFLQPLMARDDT
# Target: Neuronal acetylcholine receptor subunit alpha-3 (Rattus norvegicus, UniProt P04757)
smiles,measurement,value
"CNC1(C)C2CCC(C2)C1(C)C (stereo unspecified) [Methyl-(2,3,3-trimethyl-bicyclo[2.2.1]hept-2-yl)-amine(Mecamylamine)]",Ki,> 10 µM
